Earlier results on one substance are cited in patent US12246076B2, “Radiolabeled compounds for in vivo imaging of gastrin-releasing peptide receptor (GRPR) and treatment of GRPR-related disorders” (PROVINCIAL HEALTH SERVICES AUTHORITY, priority 2022, dated 2025).

By UniProt entry, the sequences of proteins in these tests, tags left out. Where a name states a change or a piece, a line headed by the entry shows the natural chain unless it says otherwise.
UniProt P30550: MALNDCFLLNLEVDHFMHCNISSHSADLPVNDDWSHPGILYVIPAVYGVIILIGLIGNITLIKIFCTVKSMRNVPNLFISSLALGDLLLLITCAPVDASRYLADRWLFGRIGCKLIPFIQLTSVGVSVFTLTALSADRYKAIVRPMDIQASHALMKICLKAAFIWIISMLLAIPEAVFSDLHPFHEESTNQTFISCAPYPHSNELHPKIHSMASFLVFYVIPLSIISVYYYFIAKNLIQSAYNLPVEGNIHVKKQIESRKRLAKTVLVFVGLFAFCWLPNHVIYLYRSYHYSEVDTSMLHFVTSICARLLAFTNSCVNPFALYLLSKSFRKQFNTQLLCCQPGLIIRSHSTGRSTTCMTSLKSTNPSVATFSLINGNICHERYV

The series concerns the target T1, GRPR (Homo sapiens, UniProt P30550).
T1 construct: endogenous in cells; host or cells: PC-3 prostate cancer cells
The note with it: literature (Heimbrook 1991; Lin 1995); cited from earlier work.

Regarding ranatensin, the “binding affinity to the GRPR” value is “very strong binding affinity”.
